Ki data for one compound are collected here from ChEMBL document CHEMBL4325901, “Novel multitarget-directed ligands targeting acetylcholinesterase and σ1 receptors as lead compounds for treatment of Alzheimer's disease: Synthesis, evaluation, and structural characterization of their complexes with acetylcholinesterase” (Eur J Med Chem, 2019).

Chains of the proteins cited; added tags and fusions are not shown. Lines headed by an entry give the natural chain unless they say otherwise; changes in a name come on top.
UniProt P22303: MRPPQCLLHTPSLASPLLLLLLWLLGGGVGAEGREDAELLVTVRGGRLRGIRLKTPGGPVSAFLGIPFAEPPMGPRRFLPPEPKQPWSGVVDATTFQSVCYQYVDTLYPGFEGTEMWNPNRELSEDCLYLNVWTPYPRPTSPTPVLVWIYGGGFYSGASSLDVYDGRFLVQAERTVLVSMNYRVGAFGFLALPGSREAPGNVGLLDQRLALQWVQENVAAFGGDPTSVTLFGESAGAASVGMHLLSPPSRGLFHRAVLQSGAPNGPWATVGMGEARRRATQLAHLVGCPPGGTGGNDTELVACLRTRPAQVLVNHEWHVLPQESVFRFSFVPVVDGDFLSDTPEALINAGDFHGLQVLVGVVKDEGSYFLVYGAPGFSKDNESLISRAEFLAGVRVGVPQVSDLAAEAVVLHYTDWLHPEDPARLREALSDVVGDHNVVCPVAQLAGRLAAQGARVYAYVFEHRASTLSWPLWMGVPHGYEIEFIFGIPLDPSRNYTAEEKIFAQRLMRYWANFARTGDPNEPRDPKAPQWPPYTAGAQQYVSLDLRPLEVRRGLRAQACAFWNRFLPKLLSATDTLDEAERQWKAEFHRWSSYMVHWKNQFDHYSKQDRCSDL

pKi: −log10 of the molar value.

In general, pKi refers to the negative decadic logarithm of the Ki, by convention in mol/L.

The target in the test is Acetylcholinesterase (Homo sapiens, UniProt P22303). Briefly: Inhibition of AChE (unknown origin).

In the case of `COc1cc(N)c(Cl)cc1C(=O)CCC1CCN(CC2CCCCC2)CC1`, the pKi was 7.80.
